Measured values: patent US20230085686A1, “Multicompartement hydrogel fibre their preparation and uses thereof” (Association For The Advancement Of Tissue Engineering And …, priority 2020, published 2023)

Conditions: dexamethasone-FITC in oil droplets inside a GG hydrogel fibre, in PBS

period of gradual release from the fibre: around 12 h
Substance: Dexamethasone-FITC
